Laboratory results as given in patent US8853392B2, “Benzamide mGluR5 positive allosteric modulators and methods of making and using same” (Vanderbilt University, priority 2007, dated 2014).

By UniProt entry, the sequences of proteins in these tests, tags left out. Residues count along the entry.
UniProt P31424, 21-1203 limits assumed: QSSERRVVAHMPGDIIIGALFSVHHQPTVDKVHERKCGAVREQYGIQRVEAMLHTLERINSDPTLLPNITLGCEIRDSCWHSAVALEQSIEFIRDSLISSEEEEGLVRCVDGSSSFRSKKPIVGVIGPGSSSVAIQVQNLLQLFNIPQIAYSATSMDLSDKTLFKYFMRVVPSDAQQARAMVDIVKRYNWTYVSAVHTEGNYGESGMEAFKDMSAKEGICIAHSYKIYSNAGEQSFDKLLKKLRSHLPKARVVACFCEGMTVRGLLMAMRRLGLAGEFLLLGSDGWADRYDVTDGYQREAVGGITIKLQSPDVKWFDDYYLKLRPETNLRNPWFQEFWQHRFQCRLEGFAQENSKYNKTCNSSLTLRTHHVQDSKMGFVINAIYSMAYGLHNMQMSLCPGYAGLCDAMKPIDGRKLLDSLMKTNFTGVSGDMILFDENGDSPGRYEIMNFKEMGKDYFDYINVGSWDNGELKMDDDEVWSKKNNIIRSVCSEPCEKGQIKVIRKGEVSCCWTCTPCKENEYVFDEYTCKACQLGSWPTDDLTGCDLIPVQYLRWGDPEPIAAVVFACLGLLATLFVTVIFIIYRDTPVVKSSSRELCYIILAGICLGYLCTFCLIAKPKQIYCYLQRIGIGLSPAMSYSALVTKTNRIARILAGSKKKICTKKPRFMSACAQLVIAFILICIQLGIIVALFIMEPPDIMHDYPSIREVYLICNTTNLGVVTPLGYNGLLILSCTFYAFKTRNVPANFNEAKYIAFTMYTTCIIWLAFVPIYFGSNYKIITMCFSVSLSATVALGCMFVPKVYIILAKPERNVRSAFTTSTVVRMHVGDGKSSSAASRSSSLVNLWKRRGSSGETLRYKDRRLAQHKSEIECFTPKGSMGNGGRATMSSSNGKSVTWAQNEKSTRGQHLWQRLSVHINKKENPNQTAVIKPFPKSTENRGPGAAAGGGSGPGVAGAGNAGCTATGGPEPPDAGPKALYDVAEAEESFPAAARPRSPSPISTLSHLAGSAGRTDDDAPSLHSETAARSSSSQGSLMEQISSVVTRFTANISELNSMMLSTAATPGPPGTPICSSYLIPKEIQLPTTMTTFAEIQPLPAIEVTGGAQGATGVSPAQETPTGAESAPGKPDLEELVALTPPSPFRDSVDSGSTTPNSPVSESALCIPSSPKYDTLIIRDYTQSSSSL

Target: rat mGluR5 (Rattus norvegicus, UniProt P31424)
Assay: potentiation of mGluR5 response to glutamate, Ca2+ fluorescence (FDSS) in HEK cells transfected with rat mGluR5
Assay type: cell-based
Conditions: Table 1, EC50 for potentiating the mGluR5 receptor; unit inferred
Protocol: Human embryonic kidney (HEK) cells transfected with rat mGluR5 were plated in clear bottom assay plates for assay in a Functional Drug Screening System (FDSS). The cells were loaded with a Ca^2+-sensitive fluorescent dye (e.g., Fluo-4), and the plates were washed and placed in the FDSS instrument. After establishment of a fluorescence baseline for twelve seconds, the compounds of the present invention were added to the cells, and the response in cells was measured. Five minutes later, an mGluR5 agonist (e.g., glutamate, 3,5-dihydroxyphenylglycine, or quisqualate) was added to the cells, and the response of the cells was measured. […]
The above described assay operated in two modes. […] If a compound acted as a potentiator, an EC50 value for potentiation and a maximum extent of potentiation by the compound at this concentration of agonist was determined by non-linear curve fitting. In the second mode, several fixed concentrations of the present compounds were added to various wells on a plate, followed by a range of concentrations of agonist for each concentration of present compound; the EC50 values for the agonist at each concentration of compound were determined by non-linear curve fitting. […]

Structure (SMILES)	EC50 [nM]
O=C(c1ccc(C#Cc2ccccc2)cc1)N1CCC(O)(c2ccc(Br)cc2)CC1	2460
CC(C)(C)CCNC(=O)c1ccc(-c2nc(-c3ccc(F)cc3)no2)cc1	423
